# Results taken from PMC3440242 (Peptides, 2012).
# How the values were obtained:
# human Y2 receptor [1] = assay: Internalization; assay type: cell-based; details: NEM, MTSET 30 μM; EDTA 1 mM (cell detachment)
# human Y2 receptor [2] = assay: Unmasking of surface human Y2 receptor in adherent CHO cells; assay type: cell-based
Structure (SMILES),effect on internalization of agonist (in words) (human Y2 receptor [1]),unmasking of surface Y2-CHO sites (in words) (human Y2 receptor [2])
O=C(O)CN(CCN(CC(=O)O)CC(=O)O)CC(=O)O [EDTA],significantly reduced internalization of agonists,–
C[C@H](CCC(=O)O)[C@H]1CC[C@H]2[C@@H]3[C@H](O)C[C@@H]4C[C@H](O)CC[C@]4(C)[C@H]3C[C@H](O)[C@]12C [cholate],–,inactive at 100 μM in hY2-CHO unmasking
